Experimental data from patent publication US6310051A, “Use of chelating agents in the treatment of atherosclerotic conditions” (Nycomed Imaging AS, priority 1997, dated 2001).

Conditions: rat, in vivo

MnDPDP
absorption into the blood stream at peroral administration: absorbed into the blood stream
